According to patent US8884023B2, “Pyrano [3,2-D][1,3]thiazole as glycosidase inhibitors” (priority 2011, dated 2014):

Target: T1, His-Tagged hOGA (human O-GlcNAcase) (Homo sapiens, UniProt O60502)
T1 sequence (O60502 1-916): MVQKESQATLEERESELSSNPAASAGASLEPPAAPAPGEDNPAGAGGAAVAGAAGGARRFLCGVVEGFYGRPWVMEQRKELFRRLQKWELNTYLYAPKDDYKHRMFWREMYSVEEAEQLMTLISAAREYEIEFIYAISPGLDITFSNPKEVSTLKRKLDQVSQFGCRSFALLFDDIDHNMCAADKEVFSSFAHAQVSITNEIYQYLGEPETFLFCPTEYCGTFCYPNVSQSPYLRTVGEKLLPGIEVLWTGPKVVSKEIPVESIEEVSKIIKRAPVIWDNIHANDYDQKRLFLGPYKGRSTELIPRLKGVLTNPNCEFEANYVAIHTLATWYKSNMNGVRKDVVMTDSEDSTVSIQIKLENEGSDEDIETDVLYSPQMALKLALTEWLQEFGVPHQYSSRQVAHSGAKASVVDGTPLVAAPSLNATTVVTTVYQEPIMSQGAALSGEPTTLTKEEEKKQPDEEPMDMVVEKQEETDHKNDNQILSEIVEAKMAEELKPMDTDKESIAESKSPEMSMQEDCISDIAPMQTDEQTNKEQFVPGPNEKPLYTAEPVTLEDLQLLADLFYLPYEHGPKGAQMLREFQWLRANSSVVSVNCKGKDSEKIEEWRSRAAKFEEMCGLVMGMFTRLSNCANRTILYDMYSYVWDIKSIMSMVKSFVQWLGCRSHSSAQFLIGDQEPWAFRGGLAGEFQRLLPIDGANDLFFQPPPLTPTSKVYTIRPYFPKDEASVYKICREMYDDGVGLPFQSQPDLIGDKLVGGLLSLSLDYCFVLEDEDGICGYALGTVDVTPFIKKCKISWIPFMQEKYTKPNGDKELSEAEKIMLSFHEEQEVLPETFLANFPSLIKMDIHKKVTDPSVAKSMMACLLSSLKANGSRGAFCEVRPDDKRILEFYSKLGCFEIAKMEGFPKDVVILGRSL
Experiment: biochemical
Method: Human O-GlcNAcase Enzyme Inhibition Assay
The following reaction components were added to a final volume of 10 μL in McIlvaine's Buffer (pH 6.5):
20 nM His-Tagged hOGA and 10 μM Fluoroscein mono-beta-D-(2-deoxy-2-N-acetyl) glucopyranoside (FL-GlcNAc; Marker Gene Technologies Inc, Part #M1485). […] The amount of fluorescence measured was plotted against the concentration of inhibitor to produce a sigmoidal dose response curve, from which an IC50 was calculated.

In the case of `CCNC1=N[C@@H]2[C@@H](O)[C@H](O)[C@@H](CN=[N+]=[N-])O[C@@H]2S1` [compound no. 1, (3aR,5R,6S,7R,7aR)-5-(azidomethyl)-2-(ethylamino)-5,6,7,7a-tetrahydro-3aH-pyrano[3,2-d][1,3]thiazole-6,7-diol], the pIC50 was > 7.00.

pIC50: −log10 of the molar value.
